Test results from US8481750B2 (Boehringer Ingelheim International GmbH, priority 2009, dated 2013).

Chains of the proteins cited; added tags and fusions are not shown. Residues count along the entry.
UniProt P05107, 23-769 limits assumed: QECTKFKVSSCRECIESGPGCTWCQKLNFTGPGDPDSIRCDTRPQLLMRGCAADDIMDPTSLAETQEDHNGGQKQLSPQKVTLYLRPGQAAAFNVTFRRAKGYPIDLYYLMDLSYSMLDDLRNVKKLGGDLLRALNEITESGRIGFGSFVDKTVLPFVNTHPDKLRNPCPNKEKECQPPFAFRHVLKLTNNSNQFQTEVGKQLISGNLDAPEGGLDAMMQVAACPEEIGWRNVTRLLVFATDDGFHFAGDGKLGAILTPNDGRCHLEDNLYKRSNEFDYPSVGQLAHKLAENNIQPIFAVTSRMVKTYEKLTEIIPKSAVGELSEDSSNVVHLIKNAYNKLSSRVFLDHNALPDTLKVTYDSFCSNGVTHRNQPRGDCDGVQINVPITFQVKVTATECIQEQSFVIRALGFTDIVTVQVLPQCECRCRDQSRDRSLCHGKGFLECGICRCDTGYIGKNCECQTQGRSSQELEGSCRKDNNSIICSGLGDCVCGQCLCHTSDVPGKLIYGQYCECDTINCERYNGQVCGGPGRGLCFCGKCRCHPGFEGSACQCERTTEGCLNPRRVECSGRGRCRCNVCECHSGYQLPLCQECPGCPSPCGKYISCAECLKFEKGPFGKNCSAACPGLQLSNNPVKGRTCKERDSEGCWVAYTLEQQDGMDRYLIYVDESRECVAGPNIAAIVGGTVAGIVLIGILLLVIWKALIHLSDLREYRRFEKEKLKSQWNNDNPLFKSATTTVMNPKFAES
UniProt P20701, 26-1170 limits assumed: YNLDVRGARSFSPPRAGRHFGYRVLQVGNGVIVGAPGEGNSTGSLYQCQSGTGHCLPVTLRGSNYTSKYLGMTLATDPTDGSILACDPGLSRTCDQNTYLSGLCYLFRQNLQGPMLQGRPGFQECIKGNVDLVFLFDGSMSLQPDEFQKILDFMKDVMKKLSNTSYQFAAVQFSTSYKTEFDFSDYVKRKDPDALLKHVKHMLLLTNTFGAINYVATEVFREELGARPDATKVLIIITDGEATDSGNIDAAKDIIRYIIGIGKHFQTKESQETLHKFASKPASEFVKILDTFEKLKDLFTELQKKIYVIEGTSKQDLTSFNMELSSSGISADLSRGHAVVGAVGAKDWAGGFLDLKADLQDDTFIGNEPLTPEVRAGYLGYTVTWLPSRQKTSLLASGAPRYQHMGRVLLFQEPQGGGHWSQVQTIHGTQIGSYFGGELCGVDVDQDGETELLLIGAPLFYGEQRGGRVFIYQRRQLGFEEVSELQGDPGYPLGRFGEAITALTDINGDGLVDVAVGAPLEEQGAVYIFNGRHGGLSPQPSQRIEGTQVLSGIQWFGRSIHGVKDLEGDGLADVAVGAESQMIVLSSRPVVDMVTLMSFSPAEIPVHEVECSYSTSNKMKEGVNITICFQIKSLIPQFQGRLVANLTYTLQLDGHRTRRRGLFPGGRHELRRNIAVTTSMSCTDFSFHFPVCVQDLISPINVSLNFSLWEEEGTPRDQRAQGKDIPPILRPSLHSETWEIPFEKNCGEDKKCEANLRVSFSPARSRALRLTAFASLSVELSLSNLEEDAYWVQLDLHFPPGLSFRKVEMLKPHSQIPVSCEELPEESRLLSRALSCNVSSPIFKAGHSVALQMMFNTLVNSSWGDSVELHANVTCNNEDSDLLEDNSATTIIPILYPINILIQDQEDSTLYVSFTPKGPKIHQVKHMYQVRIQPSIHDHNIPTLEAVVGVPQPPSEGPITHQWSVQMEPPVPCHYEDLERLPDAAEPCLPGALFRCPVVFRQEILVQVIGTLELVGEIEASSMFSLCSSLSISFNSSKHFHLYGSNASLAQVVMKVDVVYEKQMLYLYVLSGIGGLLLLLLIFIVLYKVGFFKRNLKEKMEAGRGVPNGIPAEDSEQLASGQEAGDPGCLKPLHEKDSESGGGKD

Molecular target: LFA-1 binding to ICAM-1 (Homo sapiens, UniProt P05107+P20701)
Assay: Inhibition of LFA-1 binding to ICAM-1 (LFA-1/Biotin-sICAM-1 AlphaScreen molecular assay)
Excerpt: Assay to Determine Inhibition of LFA-1 Binding to ICAM-1
This assay protocol is designed to study the direct antagonism, by a test compound, of the interaction of ICAM-1 with the Leukointegrin CD18/CD11a (LFA-1).
The LFA-1/Biotin-sICAM-1 molecular assay measures the ability of test compounds to inhibit binding of LFA-1 to Biotinylated-sICAM using AlphaScreen technology (Ref: Wilson, J, Rossi, C P, Carboni, S, Fremaux, C, Perrin, D, Soto, C, Kosco-Vilbois, M, and Scheer, A: A Homogeneous 384-Well High-Throughput Binding Assay for a TNF Receptor Using Alphascreen Technology. J Biomol Screen 2003; 8:522-532) that uses TS2/4(anti-LFA-1)-custom conjugated AlphaLisa acceptor beads and streptavidin-coated donor beads from PerkinElmer. The assay was performed in white OptiPlates-384 in a volume of 60 μL using assay buffer (Dulbecco's PBS containing calcium and magnesium, 2 mM MgCl2, 0.1 mM PMSF, 0.1% BSA, pH 7.1). To each well, Biotin-sICAM was added followed by purified LFA-1 (in buffer of 50 mM triethylamine, 150 mM NaCl, 1% beta octylglucoside, 2 mM MgCl2 neutralized to pH with 1M Tris-HCl, pH 7.5). For compound testing, compound was added in 5 uL to the above in 25 uL. LFA-1 and Biotin-sICAM-1 were used at concentrations that would yield a signal to background ratio of 8-10. The highest concentration of compound was 1 μM in 1% DMSO. Positive controls were wells without compound containing LFA-1, while blanks were wells without both compound and LFA-1. Plates were mixed and incubated at 37° C. for 90 minutes. This was followed by addition of 15 μL/well TS2/4-congugated acceptor beads diluted in PBS containing 0.1% BSA for a final concentration of 10 μg/mL. The plates were mixed and incubated in the dark for 30 minutes at room temperature followed by addition of 15 μL/well streptavidin-coated donor beads diluted in PBS containing 0.1% BSA at a final concentration of 15 μg/mL. The plates were mixed and incubated in the dark for 60 minutes at room temperature and then read on an EnVision Multilabel Reader using AlphaScreen 384-well OptiPlate protocol.

[1] = read-out: Alphascreen IC50, highest compound concentration 1 μM in 1% DMSO, 37° C., 90 minutes

SMILES	IC50 [1] [nM]	IC50 (read-out: Alphascreen IC50, highest compound concentration 1 μM in 1% DMSO, 37° C., 90 minutes, tested form: HCl) [nM]
C[C@@]1(Cc2ccc(C#N)cc2)C(=O)N(c2cc(Cl)cc(Cl)c2)c2ncc(C(=O)NC3(C(=O)NC4(c5cc(C(=O)N6CCC(C(N)=O)CC6)ccn5)CC4)CC3)n21	0.55	–
C[C@@]1(Cc2ccc(C#N)cc2)C(=O)N(c2cc(Cl)cc(Cl)c2)c2ncc(C(=O)NC3(C(=O)NC4(c5cc(C(N)=O)ccn5)CC4)CC3)n21	0.54	–
C[C@@]1(Cc2ccc(OC(F)(F)F)cc2)C(=O)N(c2cc(Cl)c(F)c(Cl)c2)c2ncc(C(=O)NC3(C(=O)NC4(c5ccc(C(N)=O)cn5)CC4)CC3)n21	1.9	–
C[C@@]1(Cc2ccc(OC(F)(F)F)cc2)C(=O)N(c2cc(Cl)c(F)c(Cl)c2)c2ncc(C(=O)NC3(C(=O)NC4(c5ccc(C(=O)NC6CC6)cn5)CC4)CC3)n21	0.8	–
C[C@H](O)CNC(=O)c1ccnc(C2(NC(=O)C3(NC(=O)c4cnc5n4[C@](C)(Cc4ccc(C#N)cc4)C(=O)N5c4cc(Cl)cc(Cl)c4)CC3)CC2)c1	0.27	–
C[C@@H](O)CNC(=O)c1ccnc(C2(NC(=O)C3(NC(=O)c4cnc5n4[C@](C)(Cc4ccc(C#N)cc4)C(=O)N5c4cc(Cl)cc(Cl)c4)CC3)CC2)c1	1.3	–
C[C@@]1(Cc2ccc(C#N)cc2)C(=O)N(c2cc(Cl)cc(Cl)c2)c2ncc(C(=O)NC3(C(=O)NC4(c5cc(C(=O)NCCN)ccn5)CC4)CC3)n21	–	0.39
C[C@@]1(Cc2ccc(C#N)cc2)C(=O)N(c2cc(Cl)cc(Cl)c2)c2ncc(C(=O)NC3(C(=O)NC4(c5cc(C(=O)NC6CC6)ccn5)CC4)CC3)n21	0.67	–

Where two headings read alike, the source gives them in different places.
